Literature values, collected in US20260384443A1, “THIADIAZOLES AS GLUTAMINASE I INHIBITORS” (published 2026).

What was measured:
[1] = tested on: mouse models of pulmonary fibrosis; conditions: induced by Bleomycin or TGF-β1; Cui et al. 2019; cited from earlier work
[2] = tested on: monocrataline induced rat PAH models; conditions: Bertero et al. 2016; cited from earlier work

O=C(Cc1cccc(OC(F)(F)F)c1)Nc1ccc(CCCCc2nnc(NC(=O)Cc3ccccn3)s2)nn1
efficacy in mouse models of pulmonary fibrosis [1]: shown efficacy in mouse models of pulmonary fibrosis | endothelial growth, vessel thickening and right ventricular pressure [2]: decrease endothelial growth, vessel thickening and right ventricular pressure
